The list shows a part of the results, in another mix than the full data. Results filed as inconclusive are left out. Activity calls are given as the source filed them. Calls follow the shape of the dose curve; as a rule, active = well fitted inhibition curve with a large enough effect in the polarisation, with a control signal flat (not every such curve was filed as active); inconclusive = small, poorly fitted or top-dose-only effect, or effect the other way, or a change in a side signal; inactive = no such curve, though single readings can be large or run the other way; the % refers to the polarisation.
Biological target: Menin (Homo sapiens) (UniProt O00255)
Assay: qHTS Assay for Inhibitors Targeting the Menin-MLL Interaction in MLL Related Leukemias: Competition With Texas Red Labeled MLL-derived Mutant Peptide; also: % of control where 0% means no effect
Details: fluorescence polarization; at 61.6 µM (top of the series) unless noted

Sequences of proteins named here, by UniProt entry; tags and fusion partners are left off.
UniProt O00255, whole entry: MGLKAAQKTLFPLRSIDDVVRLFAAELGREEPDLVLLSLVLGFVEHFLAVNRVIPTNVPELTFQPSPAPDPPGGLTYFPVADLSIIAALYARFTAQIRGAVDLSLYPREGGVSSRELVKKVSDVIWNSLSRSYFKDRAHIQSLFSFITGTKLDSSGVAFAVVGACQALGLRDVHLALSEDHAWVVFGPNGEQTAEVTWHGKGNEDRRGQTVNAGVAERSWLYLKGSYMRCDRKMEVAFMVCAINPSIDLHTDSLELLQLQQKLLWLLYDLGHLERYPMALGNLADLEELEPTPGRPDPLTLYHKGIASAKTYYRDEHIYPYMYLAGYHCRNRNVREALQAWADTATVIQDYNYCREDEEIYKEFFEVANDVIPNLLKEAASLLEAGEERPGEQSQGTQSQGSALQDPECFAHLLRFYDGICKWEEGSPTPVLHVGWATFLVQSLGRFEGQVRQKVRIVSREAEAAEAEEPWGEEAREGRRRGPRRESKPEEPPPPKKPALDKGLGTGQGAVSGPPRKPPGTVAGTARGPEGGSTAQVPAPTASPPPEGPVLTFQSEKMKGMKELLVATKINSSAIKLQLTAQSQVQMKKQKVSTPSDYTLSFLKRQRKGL
UniProt Q03164, whole entry partner: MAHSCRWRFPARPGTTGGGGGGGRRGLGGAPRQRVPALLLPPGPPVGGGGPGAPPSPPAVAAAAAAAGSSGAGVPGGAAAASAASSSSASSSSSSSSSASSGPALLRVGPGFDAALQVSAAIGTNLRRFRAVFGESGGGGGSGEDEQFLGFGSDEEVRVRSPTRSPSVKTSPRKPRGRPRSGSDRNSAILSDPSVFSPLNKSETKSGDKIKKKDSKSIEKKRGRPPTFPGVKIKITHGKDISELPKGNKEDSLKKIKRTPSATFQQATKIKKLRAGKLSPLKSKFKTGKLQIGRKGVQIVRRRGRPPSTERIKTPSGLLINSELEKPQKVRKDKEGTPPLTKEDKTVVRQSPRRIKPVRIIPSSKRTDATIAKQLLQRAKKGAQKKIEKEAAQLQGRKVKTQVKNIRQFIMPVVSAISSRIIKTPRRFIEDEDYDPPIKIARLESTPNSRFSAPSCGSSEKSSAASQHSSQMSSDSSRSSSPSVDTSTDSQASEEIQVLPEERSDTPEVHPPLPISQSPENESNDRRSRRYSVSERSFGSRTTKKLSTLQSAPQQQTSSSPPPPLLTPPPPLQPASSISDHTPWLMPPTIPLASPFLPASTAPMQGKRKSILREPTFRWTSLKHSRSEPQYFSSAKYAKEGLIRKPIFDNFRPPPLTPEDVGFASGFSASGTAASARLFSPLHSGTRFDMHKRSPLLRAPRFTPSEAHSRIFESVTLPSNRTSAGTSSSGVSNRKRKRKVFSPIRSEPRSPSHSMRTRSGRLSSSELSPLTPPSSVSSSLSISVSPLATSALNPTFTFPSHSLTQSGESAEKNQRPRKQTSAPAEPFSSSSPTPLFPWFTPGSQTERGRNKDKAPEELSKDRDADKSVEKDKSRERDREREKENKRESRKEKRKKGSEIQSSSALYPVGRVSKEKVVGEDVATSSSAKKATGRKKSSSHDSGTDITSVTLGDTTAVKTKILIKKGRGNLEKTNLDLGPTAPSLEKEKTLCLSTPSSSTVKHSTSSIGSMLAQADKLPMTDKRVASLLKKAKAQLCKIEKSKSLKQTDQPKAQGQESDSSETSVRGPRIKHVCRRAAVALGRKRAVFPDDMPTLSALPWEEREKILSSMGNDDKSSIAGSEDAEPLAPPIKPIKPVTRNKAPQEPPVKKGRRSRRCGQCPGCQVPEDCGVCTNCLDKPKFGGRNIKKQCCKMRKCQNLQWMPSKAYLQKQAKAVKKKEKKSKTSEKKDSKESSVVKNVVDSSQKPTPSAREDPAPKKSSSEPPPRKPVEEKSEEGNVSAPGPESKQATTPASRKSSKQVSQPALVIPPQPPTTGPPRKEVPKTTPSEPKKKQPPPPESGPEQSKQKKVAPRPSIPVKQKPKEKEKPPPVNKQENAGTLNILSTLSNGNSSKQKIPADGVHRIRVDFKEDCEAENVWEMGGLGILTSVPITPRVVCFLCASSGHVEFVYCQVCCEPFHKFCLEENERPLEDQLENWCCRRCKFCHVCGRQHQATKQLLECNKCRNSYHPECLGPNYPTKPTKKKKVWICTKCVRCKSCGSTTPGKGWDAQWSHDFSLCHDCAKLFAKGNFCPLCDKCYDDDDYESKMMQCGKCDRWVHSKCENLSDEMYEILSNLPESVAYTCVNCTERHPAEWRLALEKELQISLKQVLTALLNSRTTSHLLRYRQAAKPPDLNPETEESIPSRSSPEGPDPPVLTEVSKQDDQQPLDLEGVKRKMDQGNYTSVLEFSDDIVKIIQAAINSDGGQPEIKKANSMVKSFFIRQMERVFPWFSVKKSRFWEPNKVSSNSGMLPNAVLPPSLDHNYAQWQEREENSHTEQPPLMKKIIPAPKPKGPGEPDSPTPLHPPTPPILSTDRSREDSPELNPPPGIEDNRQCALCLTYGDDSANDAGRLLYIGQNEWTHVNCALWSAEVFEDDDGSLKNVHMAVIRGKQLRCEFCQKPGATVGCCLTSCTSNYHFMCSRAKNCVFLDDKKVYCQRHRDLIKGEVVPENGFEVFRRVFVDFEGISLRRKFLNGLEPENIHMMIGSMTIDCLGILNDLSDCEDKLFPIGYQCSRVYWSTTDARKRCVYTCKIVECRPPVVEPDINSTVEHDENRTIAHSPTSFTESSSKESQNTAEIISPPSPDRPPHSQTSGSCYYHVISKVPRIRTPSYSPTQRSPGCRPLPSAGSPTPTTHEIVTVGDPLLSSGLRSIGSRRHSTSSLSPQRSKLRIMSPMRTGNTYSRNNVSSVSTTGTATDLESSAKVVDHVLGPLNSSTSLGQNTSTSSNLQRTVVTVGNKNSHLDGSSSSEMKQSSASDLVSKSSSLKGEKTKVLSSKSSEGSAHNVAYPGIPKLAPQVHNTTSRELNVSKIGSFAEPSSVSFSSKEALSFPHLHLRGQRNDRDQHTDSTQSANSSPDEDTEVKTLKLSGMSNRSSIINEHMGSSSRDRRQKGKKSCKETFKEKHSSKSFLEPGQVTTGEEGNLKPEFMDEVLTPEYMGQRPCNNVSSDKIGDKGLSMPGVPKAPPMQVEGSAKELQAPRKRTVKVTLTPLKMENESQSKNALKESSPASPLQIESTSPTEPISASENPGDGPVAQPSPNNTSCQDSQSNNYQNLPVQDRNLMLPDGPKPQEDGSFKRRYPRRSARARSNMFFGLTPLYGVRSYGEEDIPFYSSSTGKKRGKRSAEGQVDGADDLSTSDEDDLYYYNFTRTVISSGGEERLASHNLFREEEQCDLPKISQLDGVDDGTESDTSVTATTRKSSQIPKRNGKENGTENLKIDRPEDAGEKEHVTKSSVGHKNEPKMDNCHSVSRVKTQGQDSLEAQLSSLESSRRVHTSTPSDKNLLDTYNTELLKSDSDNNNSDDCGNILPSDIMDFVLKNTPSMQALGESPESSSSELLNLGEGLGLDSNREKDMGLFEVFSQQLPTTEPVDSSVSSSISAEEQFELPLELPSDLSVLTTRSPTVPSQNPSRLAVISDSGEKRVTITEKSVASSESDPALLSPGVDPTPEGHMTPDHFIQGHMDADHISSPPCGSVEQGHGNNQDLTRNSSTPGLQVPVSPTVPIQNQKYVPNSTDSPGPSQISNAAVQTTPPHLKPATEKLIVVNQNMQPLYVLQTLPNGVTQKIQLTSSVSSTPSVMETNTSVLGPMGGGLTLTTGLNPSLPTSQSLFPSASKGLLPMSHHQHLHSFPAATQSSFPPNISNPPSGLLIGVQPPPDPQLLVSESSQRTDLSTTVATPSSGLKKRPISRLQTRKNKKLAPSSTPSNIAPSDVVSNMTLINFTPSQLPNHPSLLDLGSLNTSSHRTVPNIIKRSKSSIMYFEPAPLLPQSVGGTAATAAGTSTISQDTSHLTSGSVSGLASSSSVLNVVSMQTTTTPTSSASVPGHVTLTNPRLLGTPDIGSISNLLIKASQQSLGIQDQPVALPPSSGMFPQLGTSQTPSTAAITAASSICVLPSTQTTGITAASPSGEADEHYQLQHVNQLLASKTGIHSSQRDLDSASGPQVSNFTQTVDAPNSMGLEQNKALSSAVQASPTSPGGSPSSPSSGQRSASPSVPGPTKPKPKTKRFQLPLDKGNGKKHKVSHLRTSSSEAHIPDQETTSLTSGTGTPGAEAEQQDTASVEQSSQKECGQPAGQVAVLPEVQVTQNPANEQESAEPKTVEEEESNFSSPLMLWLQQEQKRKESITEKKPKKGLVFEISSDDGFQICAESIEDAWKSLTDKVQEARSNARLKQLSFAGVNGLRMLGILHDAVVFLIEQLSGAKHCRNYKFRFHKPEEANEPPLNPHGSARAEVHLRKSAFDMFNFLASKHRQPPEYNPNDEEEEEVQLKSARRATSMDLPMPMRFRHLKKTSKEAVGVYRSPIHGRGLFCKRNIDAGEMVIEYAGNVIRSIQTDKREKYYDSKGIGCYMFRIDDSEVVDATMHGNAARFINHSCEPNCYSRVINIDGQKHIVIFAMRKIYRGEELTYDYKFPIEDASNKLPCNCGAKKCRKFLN

SMILES | FP activity change, negative = inhibition
COc1ccc(OP(C)(=O)Nc2ccc(Br)cc2)cc1 (stereo not drawn) | inactive: 1.33%
CCN(CC)CC(O)COC(=O)C(O)(c1ccccc1)C1CCCCC1 (stereo not drawn) | inactive: -5.92%
CN(C)C(=O)c1c([N+](=O)[O-])cc([N+](=O)[O-])cc1[N+](=O)[O-] | inactive: -18.9%
CP(=O)(Nc1ccc(Cl)cc1)Oc1ccc(F)cc1 (stereo not drawn) | inactive: 2.06%
CC(C)(C)c1ccc(OP(C)(=O)O)cc1 | inactive: -4.14%
COc1ccccc1OP(C)(=O)Nc1ccccc1Br (stereo not drawn) | inactive: -2.01%
CCOC(=O)c1ccc(NP(C)(=O)Oc2ccc(Cl)cc2)cc1 (stereo not drawn) | inactive: -4.09%
CC(C)OP(=O)(F)OC(C)C | inactive: 2.01%
C/C1=C2N=C(/C=C3N=C(/C(C)=C4\[N-][C@@](C)([C@H]5N=C1[C@@](C)(CCC(=O)NC[C@H](C)OP(=O)([O-])O[C@@H]1[C@H](O)[C@H](n6cnc7cc(C)c(C)cc76)O[C@@H]1CO)[C@@H]5CC(N)=O)[C@](C)(CC(N)=O)[C@H]4CCC(N)=O)[C@@](C)(CC(N)=O)[C@@H]\3CCC(N)=O)C(C)(C)[C@@H]/2CCC(N)=O.[C-]#N.[Co+3] | inactive: -14.9% [at 24.8 µM]
COc1ccccc1OP(C)(=O)Nc1ccccc1 (stereo not drawn) | inactive: -11.8%
CP(=O)(Nc1ccccc1Br)Oc1ccccc1 (stereo not drawn) | inactive: -4.62%
CP(=S)(Nn1cnnc1)Oc1ccccc1 (stereo not drawn) | inactive: 18.6%
Cc1cc(C)cc(OP(C)(=O)Nc2ccc(SC(F)(F)F)cc2)c1 (stereo not drawn) | inactive: -0.651%
CP(=O)(NC(=O)Nc1ccccc1)Oc1ccccc1 (stereo not drawn) | inactive: -5.03%
CP(=O)(Oc1ccccc1)OC(c1ccccc1)C(F)(F)F (stereo not drawn) | inactive: -24.3%
Cc1cccc(C)c1OP(C)(=O)Nc1ccc(SC(F)(F)F)cc1 (stereo not drawn) | inactive: 3.06%
CP(=O)(Nc1ccccn1)Oc1ccc(Cl)cc1 (stereo not drawn) | inactive: -10.5%
CCOP(C)(=S)SCC(=O)NC(C)C(=O)O (stereo not drawn) | inactive: 2.51%
CN(C)CCS | inactive: -6.97%
CCOC(=O)c1ccc(NP(C)(=O)Oc2ccc(OC)cc2)cc1 (stereo not drawn) | inactive: -18.7%
CCN(CC)CCCOC(=O)C(O)(c1ccccc1)c1ccccc1 | inactive: 1.87%
O=[N+]([O-])[O-].[NH4+] | inactive: -6.73%

SMILES | FP activity change, negative = inhibition
O=C(O)C(O)(c1ccccc1)c1ccccc1 | inactive: -0.863%
Cc1cccc(C)c1OP(C)(N)=O (stereo not drawn) | inactive: -25.6%
CC(C)(C)c1ccc(OP(C)(=O)Nc2ccc(SC(F)(F)F)cc2)cc1 (stereo not drawn) | inactive: 10.1%
O=C(O)C1(O)c2ccccc2-c2ccccc21 | inactive: -4.72%
COc1ccc(OP(C)(=O)Nc2cccc(F)c2)cc1 (stereo not drawn) | inactive: -0.305%
COc1ccccc1OP(C)(=O)Nc1cc(Cl)ccc1C (stereo not drawn) | inactive: -11.3%
Cc1cc(C)cc(OP(C)(N)=O)c1 (stereo not drawn) | inactive: 7.25%
CCOC(=O)c1ccc(NP(C)(=O)Oc2ccccc2)cc1 (stereo not drawn) | inactive: 3.4%
Cc1ccc(NP(C)(=O)Oc2ccccc2)c(C)c1 (stereo not drawn) | inactive: -3.14%
COc1ccccc1OP(C)(=O)Nc1ccc(C)cc1 (stereo not drawn) | inactive: -13.9%
O=[N+]([O-])c1cccc([N+](=O)[O-])c1 | inactive: 4.4%
O=[N+]([O-])OCC(CO[N+](=O)[O-])(CO[N+](=O)[O-])CO[N+](=O)[O-] | inactive: -23.5%
CC1=NCCc2c1[nH]c1ccccc21.O=[N+]([O-])c1cc([N+](=O)[O-])c(O)c([N+](=O)[O-])c1 | inactive: -3.52%
CCOC(=O)c1ccc(NP(C)(=O)Oc2cc(C)cc(C)c2)cc1 (stereo not drawn) | inactive: -13.5%
CP(=O)(Nc1cccc(Br)c1)Oc1ccccc1 (stereo not drawn) | inactive: -1.97%
Cc1cc(C)cc(OP(C)(=O)Nc2ccccn2)c1 (stereo not drawn) | inactive: -1.13%
Cc1ccc(C)c(NP(C)(=O)Oc2ccccc2)c1 (stereo not drawn) | inactive: -15.7%
Cc1nc2ccc3ccccc3c2s1.O=[N+]([O-])c1cc([N+](=O)[O-])c(O)c([N+](=O)[O-])c1 | inactive: 17%
CP(=O)(Nc1ccc(SC(F)(F)F)cc1)Oc1ccccc1 (stereo not drawn) | inactive: 4.87%
CN1CCCCC1COC(=O)C1(O)c2ccccc2CCc2ccccc21 (stereo not drawn) | inactive: -9.91%
COc1ccccc1OP(C)(=O)Nc1c(C)cccc1C (stereo not drawn) | inactive: -7.68%
